Reference: patent publication US7217704B2, “LPA receptor agonists and antagonists and methods of use” (The University of Tennessee Research Foundation, priority 2003, dated 2007)
Like-named read-outs stand apart in the source and are kept apart here.

Amino acid sequences for entries named in this document (tags omitted). A change or cut given only in a name is not applied to a line headed by its entry.
UniProt Q92633: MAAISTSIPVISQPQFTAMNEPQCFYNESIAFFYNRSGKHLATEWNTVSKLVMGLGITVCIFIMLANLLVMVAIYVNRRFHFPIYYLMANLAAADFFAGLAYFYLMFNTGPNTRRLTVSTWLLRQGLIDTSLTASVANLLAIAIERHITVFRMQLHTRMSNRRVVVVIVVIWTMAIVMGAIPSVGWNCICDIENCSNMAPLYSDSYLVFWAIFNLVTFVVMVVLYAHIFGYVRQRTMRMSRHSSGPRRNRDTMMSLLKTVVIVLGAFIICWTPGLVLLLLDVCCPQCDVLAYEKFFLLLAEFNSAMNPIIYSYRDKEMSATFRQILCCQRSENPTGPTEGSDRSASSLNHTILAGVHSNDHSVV
UniProt Q9HBW0, whole entry: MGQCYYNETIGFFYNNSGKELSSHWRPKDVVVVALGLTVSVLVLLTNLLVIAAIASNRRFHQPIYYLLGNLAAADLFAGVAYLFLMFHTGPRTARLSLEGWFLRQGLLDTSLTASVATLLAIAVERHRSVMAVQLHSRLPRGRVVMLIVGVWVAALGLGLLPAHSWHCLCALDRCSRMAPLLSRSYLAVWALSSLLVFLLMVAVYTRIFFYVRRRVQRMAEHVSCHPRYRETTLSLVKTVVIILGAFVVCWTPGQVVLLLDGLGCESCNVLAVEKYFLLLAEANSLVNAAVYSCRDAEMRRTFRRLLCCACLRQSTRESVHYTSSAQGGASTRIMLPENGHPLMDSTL

Key:
LPA1 = molecular target: T1, LPA1 (Homo sapiens, UniProt Q92633); assay: Ca2+ transients (agonism / inhibition of LPA response) in RH7777 cells stably expressing LPA1; format: cell-based; settings: for EC50: induction of Ca2+ transients; for IC50 / Ki: inhibition of LPA-induced Ca2+ transients
T1 construct: expressed in transfected cells
Description: (§1) The culture medium (DMEM containing 10% FBS) was then replaced with modified Krebs solution (120 mM NaCl, 5 mM KCl, 0.62 mM MgSO4, 1.8 mM CaCl2, 10 mM HEPES, 6 mM glucose, pH 7.4) and the cells were serum starved for 6–8 hours (12 h for PC-3 cells). Cells were loaded with Fura-2 AM for 35 minutes in modified Krebs medium. The Fura-2 was removed before loading the plate in the FlexStation instrument by replacing the medium once again with 100 μl modified Krebs medium/well. Plates were incubated for 4 minutes in the instrument to allow for warming to 37° C. Changes in intracellular Ca^2+ concentration were monitored by measuring the ratio of emitted light intensity at 520 nm in response to excitation by 340 nm and 380 nm wavelength lights, respectively. Each well was monitored for 80–120 seconds. […] Time courses were recorded using the SoftMax Pro software (Molecular Devices, Sunnyvale, Calif.). Ca^2+ transients were quantified automatically by calculating the difference between maximum and baseline ratio values for each well.
(§2) Each FAP analog was tested for the ability to induce Ca^2+ transients in RH7777 cells transfected with LPA1-3 receptors (agonism), as well as the ability to inhibit LPAinduced Ca^2+ transients in the same cells (antagonism) (Table 3).

LPA2 [1] = molecular target: T2, LPA2 (Homo sapiens, UniProt Q9HBW0); settings: relative to LPA 18:1; previously reported in Virag et al. (2003); cited from earlier work
T2 construct: expressed in transfected cells

LPA3 = molecular target: T3, LPA3 (Homo sapiens, UniProt Q9UBY5); assay: Ca2+ transients (agonism / inhibition of LPA response) in RH7777 cells stably expressing LPA3; format: cell-based
T3 construct: expressed in transfected cells
T3 sequence (Q9UBY5 1-353): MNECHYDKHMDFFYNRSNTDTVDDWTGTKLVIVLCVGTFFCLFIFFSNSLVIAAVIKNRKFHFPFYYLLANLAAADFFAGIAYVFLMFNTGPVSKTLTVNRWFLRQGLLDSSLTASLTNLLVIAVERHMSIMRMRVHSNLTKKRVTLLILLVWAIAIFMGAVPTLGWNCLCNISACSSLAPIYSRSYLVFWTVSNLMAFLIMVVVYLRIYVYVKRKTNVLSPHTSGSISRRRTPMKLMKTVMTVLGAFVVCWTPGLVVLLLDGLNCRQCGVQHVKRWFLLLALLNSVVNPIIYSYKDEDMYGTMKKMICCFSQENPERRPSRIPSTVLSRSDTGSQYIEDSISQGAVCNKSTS
Description: as §1, §2

LPA2 [2] = molecular target: T2, LPA2; assay: Ca2+ transients (agonism / inhibition of LPA response) in RH7777 cells stably expressing LPA2; format: cell-based
Description: as §1, §2

[3] = maximal efficacy of the drug/maximal efficacy of LPA 18:1

Row | EC50 (LPA1) [nM] | IC50 (LPA1) [nM] | Ki (LPA1) [nM] | SMILES | also measured
1 | > 30000 | 2200 | 457 | CCC=CCCCCCCCCCCOP(=O)(O)O [Compound 5e, Phosphoric acid monotetradec-11-enyl ester] | 
2 | > 30000 | 3000 | 1150 | CCCCC=CCCCCCCCCOP(=O)(O)O [Compound 5d, Phosphoric acid monotetradec-9-enyl ester] | 

The next lines start with the compound.

Row | SMILES | EC50 (LPA1) [nM] | IC50 (LPA1) [nM] | Ki (LPA1) [nM] | also measured
3 | CCCCCCCCCCOP(=O)(O)O [Compound 2a] |  |  |  | LPA2 (Emax) (LPA2 [1]): 82%
4 | CCCCCCCCC=CCCCCCCCCOP(O)(O)=S [Compound 8g, Thiophosphoric acid O-octadec-9-enyl ester] |  |  |  | Emax (LPA3; RH7777, read-out: LPA3 (Emax)): 78%; LPA3 (Emax) (LPA3; [3]): 78%; Emax (LPA2 [2]; RH7777, read-out: LPA2 (Emax)): 175%; LPA2 (Emax) (LPA2 [2]; [3]): 175%
5 | CCC=CCCCCCCCCOP(=O)(O)O [Compound 5c, Phosphoric acid monododec-9-enyl ester] |  |  |  | Emax (LPA2 [2]; RH7777, maximal efficacy of the drug/maximal efficacy of LPA 18:1, read-out: LPA2 (Emax)): 78%
